For one compound, kon results are on record in BindingDB's records for doi:10.1016/j.ejmech.2016.08.061 (South China University of Technology, 2017).

Amino acid sequences for entries named in this document (tags omitted).
UniProt P81908, whole entry: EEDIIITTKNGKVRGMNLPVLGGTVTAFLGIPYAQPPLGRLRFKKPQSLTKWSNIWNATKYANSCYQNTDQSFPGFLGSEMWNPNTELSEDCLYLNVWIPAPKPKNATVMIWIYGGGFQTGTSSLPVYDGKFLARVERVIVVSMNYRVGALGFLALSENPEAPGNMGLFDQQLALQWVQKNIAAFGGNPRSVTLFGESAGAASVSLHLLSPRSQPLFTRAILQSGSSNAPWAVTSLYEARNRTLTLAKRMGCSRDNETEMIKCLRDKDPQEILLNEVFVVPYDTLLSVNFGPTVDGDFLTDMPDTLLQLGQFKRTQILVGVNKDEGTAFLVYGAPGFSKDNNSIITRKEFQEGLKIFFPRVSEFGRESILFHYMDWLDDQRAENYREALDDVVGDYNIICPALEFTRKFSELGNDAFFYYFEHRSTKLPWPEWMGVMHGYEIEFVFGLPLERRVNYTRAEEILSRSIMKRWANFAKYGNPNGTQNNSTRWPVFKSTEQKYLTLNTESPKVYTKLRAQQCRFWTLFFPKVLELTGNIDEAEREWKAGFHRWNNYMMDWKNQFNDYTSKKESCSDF
UniProt P06276, whole entry: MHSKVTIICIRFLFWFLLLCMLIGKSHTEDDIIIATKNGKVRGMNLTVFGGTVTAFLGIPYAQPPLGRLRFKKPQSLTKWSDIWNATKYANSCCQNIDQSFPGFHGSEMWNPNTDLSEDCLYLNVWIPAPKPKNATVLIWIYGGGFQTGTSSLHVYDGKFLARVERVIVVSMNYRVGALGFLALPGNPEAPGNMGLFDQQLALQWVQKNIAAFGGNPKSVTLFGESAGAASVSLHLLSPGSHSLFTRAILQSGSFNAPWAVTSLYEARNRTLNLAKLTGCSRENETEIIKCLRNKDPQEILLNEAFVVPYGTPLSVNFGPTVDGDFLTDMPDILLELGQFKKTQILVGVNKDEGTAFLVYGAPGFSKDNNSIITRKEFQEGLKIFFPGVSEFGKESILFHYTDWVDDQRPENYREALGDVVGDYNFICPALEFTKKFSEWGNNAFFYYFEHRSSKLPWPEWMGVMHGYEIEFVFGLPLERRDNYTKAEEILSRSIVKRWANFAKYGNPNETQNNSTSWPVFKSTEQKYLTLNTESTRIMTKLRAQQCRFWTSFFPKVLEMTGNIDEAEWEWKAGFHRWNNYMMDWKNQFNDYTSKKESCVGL

The target of assay [1] is Cholinesterase (Equus caballus, UniProt P81908). Nature of the assay: Irreversible inhibition of equine serum BuChE assessed as second order carbamylation rate constant using S-butyrylthiocholine iodide as substrate preincubated up to 45 mins followed by substrate addition measured after 5 mins. As to conditions: read-out: kon (M-1-s-1). Put shortly:
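Equine BChE, pH 8, 37°C, was preincubated for 1, 2, 4, 8, 15, 30 and 45 min with inhibitor at 1×10^-7 to 5×10^-6 M (seven levels). Residual activity was read by Ellman with BTCh and normalised to a water control at each time. kobs came from a one-phase exponential decay fit; k_I1 came from the linear kobs versus concentration relation.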

The target of assay [2] is Cholinesterase (Homo sapiens, UniProt P06276). The assay can be described thus: Irreversible inhibition of human plasma BuChE assessed as second order carbamylation rate constant using S-butyrylthiocholine iodide as substrate preincubated up to 45 mins followed by substrate addition measured after 5 mins. As to conditions: read-out: kon (M-1-s-1). Put shortly: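 Diluted human plasma BChE was preincubated for 1–45 min with inhibitor at 5×10^-9, 1×10^-8, 2.5×10^-8 and 5×10^-8 M. Residual Ellman activity with BTCh at pH 8 was normalised to a water control. kobs came from a one-phase exponential fit; k_I1 came from the slope of kobs versus concentration.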

On to `CN(C)C(=O)Oc1cc(OC(=O)N(C)C)cc(C(O)CNC(C)(C)C)c1` (configuration not stated) [CHEBI:553827], for which the figures for the kon at Cholinesterase [1] and on Cholinesterase [2] were 2400 M⁻¹ s⁻¹ and 130000 M⁻¹ s⁻¹, respectively.
